Key:
Nav 1.7 = Nav 1.7 (Homo sapiens (Human), UniProt Q15858); test: Nav 1.7 in vitro PX assay (PatchXpress whole cell voltage clamp); type: cell-based; conditions: read-out: Nav1.7 PX IC50 IP; 293 cells, human Nav1.7, partially inactivated state
Nav 1.5 = Nav 1.5 (Homo sapiens (Human), UniProt Q14524); test: Nav 1.5 in vitro PX assay (PatchXpress whole cell voltage clamp); type: cell-based; conditions: read-out: Nav1.5 PX IC50; 293 cells stably transfected with Nav 1.5; second part of table

Protein sequences, listed by entry. Tags and fused reporters are not part of them.
UniProt Q15858, whole entry: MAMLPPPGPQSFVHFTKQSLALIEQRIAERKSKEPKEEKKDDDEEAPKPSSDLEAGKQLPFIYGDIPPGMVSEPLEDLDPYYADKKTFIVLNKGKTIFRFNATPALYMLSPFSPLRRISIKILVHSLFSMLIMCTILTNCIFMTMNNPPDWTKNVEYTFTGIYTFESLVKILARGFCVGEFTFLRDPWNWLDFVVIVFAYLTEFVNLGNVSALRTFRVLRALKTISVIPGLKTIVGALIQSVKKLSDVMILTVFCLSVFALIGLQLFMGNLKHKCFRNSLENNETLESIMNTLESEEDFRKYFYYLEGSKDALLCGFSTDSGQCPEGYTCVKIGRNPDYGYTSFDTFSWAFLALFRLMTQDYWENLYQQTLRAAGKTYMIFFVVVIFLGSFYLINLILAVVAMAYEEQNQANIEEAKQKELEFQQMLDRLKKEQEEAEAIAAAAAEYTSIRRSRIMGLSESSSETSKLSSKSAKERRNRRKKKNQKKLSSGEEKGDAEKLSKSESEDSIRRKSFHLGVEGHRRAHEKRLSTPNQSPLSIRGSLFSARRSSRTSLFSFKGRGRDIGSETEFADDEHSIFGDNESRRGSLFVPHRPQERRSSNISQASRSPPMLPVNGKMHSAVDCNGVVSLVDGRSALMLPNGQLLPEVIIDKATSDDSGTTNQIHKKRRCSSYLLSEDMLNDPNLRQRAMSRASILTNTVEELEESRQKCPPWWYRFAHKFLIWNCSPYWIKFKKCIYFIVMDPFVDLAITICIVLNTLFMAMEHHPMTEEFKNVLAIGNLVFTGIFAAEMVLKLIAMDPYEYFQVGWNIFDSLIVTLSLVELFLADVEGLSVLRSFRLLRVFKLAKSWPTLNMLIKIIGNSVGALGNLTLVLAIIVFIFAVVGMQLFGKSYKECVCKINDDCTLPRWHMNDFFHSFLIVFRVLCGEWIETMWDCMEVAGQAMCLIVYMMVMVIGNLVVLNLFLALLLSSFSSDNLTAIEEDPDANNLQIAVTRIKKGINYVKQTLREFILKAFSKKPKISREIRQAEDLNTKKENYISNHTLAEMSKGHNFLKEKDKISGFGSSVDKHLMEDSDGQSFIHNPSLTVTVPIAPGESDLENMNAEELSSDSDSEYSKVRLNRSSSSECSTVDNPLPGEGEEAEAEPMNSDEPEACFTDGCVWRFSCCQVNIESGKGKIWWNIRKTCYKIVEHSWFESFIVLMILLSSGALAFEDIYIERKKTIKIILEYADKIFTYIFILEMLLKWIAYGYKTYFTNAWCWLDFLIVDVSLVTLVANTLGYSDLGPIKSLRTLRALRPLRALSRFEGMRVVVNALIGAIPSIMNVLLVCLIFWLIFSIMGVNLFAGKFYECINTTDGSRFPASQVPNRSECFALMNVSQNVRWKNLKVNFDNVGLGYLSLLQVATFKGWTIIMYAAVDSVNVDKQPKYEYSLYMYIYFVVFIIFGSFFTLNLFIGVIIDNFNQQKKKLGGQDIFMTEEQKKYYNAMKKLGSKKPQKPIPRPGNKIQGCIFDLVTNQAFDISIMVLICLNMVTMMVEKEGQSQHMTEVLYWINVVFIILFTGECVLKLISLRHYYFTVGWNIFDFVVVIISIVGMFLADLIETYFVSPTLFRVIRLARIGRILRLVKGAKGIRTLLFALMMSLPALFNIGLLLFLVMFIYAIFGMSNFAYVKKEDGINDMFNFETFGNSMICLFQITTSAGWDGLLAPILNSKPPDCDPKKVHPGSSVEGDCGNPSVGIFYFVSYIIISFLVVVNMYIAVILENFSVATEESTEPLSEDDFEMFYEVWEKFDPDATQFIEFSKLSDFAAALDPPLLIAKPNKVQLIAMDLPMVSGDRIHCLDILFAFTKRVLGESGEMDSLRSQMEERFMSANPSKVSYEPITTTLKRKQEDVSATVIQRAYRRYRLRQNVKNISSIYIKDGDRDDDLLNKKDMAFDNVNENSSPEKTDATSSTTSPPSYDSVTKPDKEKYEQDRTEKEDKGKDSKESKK
UniProt Q14524, whole entry: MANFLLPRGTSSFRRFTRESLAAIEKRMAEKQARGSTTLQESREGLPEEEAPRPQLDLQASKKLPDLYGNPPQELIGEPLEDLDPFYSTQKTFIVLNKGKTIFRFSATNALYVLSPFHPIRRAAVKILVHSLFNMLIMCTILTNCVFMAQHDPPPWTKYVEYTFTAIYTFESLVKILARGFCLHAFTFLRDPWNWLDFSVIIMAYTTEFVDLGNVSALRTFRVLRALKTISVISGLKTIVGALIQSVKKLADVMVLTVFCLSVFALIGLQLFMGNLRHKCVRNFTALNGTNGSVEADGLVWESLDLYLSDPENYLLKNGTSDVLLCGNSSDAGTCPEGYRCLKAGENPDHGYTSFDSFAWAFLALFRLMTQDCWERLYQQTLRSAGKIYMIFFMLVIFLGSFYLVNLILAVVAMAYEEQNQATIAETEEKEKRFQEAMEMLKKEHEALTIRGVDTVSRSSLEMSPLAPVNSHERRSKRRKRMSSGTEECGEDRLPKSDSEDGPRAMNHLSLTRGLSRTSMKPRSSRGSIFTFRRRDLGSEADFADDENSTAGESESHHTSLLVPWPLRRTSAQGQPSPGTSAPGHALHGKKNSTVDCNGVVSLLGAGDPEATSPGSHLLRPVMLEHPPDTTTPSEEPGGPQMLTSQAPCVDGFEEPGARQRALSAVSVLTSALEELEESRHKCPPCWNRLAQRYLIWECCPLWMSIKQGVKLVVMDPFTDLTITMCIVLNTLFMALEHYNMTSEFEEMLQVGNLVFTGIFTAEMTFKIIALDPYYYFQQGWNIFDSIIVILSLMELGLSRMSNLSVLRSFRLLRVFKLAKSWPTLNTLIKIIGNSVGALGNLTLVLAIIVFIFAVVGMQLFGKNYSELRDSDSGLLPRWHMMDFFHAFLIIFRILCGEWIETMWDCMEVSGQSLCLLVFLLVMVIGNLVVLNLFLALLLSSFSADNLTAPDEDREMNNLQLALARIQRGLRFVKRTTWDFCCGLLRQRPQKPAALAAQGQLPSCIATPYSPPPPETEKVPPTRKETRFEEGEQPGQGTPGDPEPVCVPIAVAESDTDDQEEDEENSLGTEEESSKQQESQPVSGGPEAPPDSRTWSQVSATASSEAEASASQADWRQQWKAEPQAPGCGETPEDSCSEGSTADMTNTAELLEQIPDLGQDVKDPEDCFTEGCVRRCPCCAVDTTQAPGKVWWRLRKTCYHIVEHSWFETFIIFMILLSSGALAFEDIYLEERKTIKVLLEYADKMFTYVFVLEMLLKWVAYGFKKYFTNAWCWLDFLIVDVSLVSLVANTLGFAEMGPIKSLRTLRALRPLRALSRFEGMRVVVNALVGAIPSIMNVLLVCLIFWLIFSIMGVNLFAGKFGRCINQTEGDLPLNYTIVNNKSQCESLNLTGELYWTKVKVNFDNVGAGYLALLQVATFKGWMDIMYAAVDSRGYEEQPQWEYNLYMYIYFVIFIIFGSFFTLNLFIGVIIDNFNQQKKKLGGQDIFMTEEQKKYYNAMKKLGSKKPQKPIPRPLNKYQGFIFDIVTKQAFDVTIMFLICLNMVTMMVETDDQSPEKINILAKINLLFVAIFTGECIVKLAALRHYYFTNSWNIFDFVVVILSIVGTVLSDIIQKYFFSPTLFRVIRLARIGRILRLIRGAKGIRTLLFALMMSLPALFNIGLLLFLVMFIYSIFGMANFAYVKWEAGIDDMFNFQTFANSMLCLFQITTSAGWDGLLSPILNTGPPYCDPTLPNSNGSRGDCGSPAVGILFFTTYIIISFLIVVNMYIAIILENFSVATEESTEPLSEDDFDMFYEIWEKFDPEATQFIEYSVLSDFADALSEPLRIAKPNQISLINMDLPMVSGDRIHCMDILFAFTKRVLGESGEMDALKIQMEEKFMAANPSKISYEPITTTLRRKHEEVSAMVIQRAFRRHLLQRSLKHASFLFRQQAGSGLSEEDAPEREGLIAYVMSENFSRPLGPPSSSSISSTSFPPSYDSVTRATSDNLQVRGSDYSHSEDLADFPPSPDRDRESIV

## COc1cc(-c2cccc(F)c2)ccc1-c1nncc2cc(S(=O)(=O)Nc3ccncn3)ccc12
Nav 1.7
  IC50: 581 nM
Nav 1.5
  IC50: > 30000 nM
